For this series, the system named is Caco-2 cells. The conditions noted are these: human.

Consider CDF diacetate [CDFDA], for which the “Clcdfda, diffusional clearance of CDFDA (fixed)” value is reported as 0.004 (fixed) mL/min.
